Permeability data for macrocyclic peptides

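Lipid, pH, incubation time, direction and concentration are not recorded in the data file. Other peptides of the study may be missing here. Entries at the database's floor value (log10 P of -10) are not listed.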

PAMPA measures passive passage through an artificial lipid membrane. Permeability is in 10^-6 cm/s, converted from the database's log10 values; higher is more permeable.

{"smiles": "CC(C)C[C@H]1C(=O)N(Cc2ccccc2)CC(=O)N2CCC[C@H]2C(=O)N(C)[C@@H](CC(C)C)C(=O)N[C@@H](Cc2ccccc2)C(=O)N2CCC[C@@H]2C(=O)N[C@H](C)C(=O)N1C", "PAMPA (10^-6 cm/s)": "0.91"}
{"smiles": "CC(C)C[C@@H]1NC(=O)[C@@H](CC(C)C)N(C)C(=O)[C@@H](C)NC(=O)[C@H](Cc2ccccc2)NC(=O)CN(Cc2ccccc2)C(=O)[C@@H]2CCCN2C1=O", "PAMPA (10^-6 cm/s)": "3.6"}
{"smiles": "CC(C)C[C@@H]1C(=O)N(C)[C@@H](CC(C)C)C(=O)N2CCC[C@H]2C(=O)N(C)[C@@H](CC(C)C)C(=O)N[C@@H](Cc2ccccc2)C(=O)N[C@H](C)C(=O)N1C", "PAMPA (10^-6 cm/s)": "5.4"}
{"smiles": "CC(C)C[C@H]1NC(=O)C[C@H](Cc2ccccc2)NC(=O)[C@H]2CCCN2C(=O)[C@H](Cc2ccccc2)NC(=O)[C@H](CC(C)C)N(C)C(=O)[C@@H]2CCCN2C(=O)[C@H](CC(C)C)N(C)C1=O", "PAMPA (10^-6 cm/s)": "4.9"}
{"smiles": "CC(C)C[C@@H]1NC(=O)[C@H]2CCCN2C(=O)[C@H](CC(C)C)N(C)C(=O)[C@H](CC(C)C)N(C)C(=O)[C@H](C)N(C)C(=O)[C@H]2CCCN2C(=O)[C@H](Cc2ccccc2)NC1=O", "PAMPA (10^-6 cm/s)": "2"}
{"smiles": "CC(C)C[C@@H]1NC(=O)[C@H](C)NC(=O)[C@@H]2CCCN2C(=O)[C@H](Cc2ccccc2)NC(=O)[C@H](CC(C)C)N(C)C(=O)[C@@H]2CCCN2C(=O)CN(Cc2ccccc2)C1=O", "PAMPA (10^-6 cm/s)": "0.74"}
{"smiles": "CC(C)C[C@@H]1NC(=O)[C@@H]2CCCN2C(=O)C[C@H](Cc2ccccc2)NC(=O)[C@H](CC(C)C)N(C)C(=O)C[C@H](Cc2ccccc2)NC(=O)[C@H]2CCCN2C(=O)[C@H](Cc2ccccc2)NC1=O", "PAMPA (10^-6 cm/s)": "1.5"}
{"smiles": "CC(C)C[C@@H]1C(=O)N(Cc2ccccc2)CC(=O)N2CCC[C@H]2C(=O)N[C@H](CC(C)C)C(=O)N[C@@H](Cc2ccccc2)C(=O)N2CCC[C@@H]2C(=O)N(C)[C@@H](C)C(=O)N1C", "PAMPA (10^-6 cm/s)": "3"}
{"smiles": "CC(C)C[C@@H]1C(=O)N[C@@H](Cc2ccccc2)CC(=O)N2CCC[C@@H]2C(=O)N(C)[C@H](CC(C)C)C(=O)N[C@@H](Cc2ccccc2)C(=O)N2CCC[C@H]2C(=O)N[C@@H](Cc2ccccc2)CC(=O)N1C", "PAMPA (10^-6 cm/s)": "2"}
{"smiles": "CC(C)C[C@@H]1C(=O)N[C@@H](Cc2ccccc2)C(=O)N(C)[C@H](C)C(=O)N[C@H](CC(C)C)C(=O)N(Cc2ccccc2)CC(=O)N2CCC[C@@H]2C(=O)N1C", "PAMPA (10^-6 cm/s)": "8.1"}
{"smiles": "CCCN1CC(=O)N(C)[C@@H](CC(C)C)C(=O)N(Cc2ccccc2)CC(=O)N2CCC[C@H]2C(=O)N(C)[C@@H](CC(C)C)C(=O)N[C@@H](Cc2ccccc2)C1=O", "PAMPA (10^-6 cm/s)": "12"}
{"smiles": "CC(C)C[C@@H]1C(=O)N[C@@H](Cc2ccccc2)C(=O)N(C)[C@@H](C)C(=O)N[C@H](CC(C)C)C(=O)N[C@@H](Cc2ccccc2)CC(=O)N2CCC[C@H]2C(=O)N1C", "PAMPA (10^-6 cm/s)": "1.4"}
{"smiles": "CC(C)C[C@@H]1NC(=O)[C@H](CC(C)C)N(C)C(=O)[C@@H](C)NC(=O)[C@H](Cc2ccccc2)NC(=O)[C@H](CC(C)C)N(C)C(=O)[C@@H]2CCCN2C1=O", "PAMPA (10^-6 cm/s)": "4.8"}
{"smiles": "CC(C)C[C@H]1NC(=O)[C@@H]2CCCN2C(=O)[C@@H](CC(C)C)NC(=O)[C@H](CC(C)C)N(C)C(=O)[C@@H](C)NC(=O)[C@H](Cc2ccccc2)NC1=O", "PAMPA (10^-6 cm/s)": "0.55"}
{"smiles": "CCCN1CC(=O)N[C@@H](CC(C)C)C(=O)N(Cc2ccccc2)CC(=O)N2CCC[C@@H]2C(=O)N[C@H](CC(C)C)C(=O)N[C@@H](Cc2ccccc2)C(=O)N2CCC[C@H]2C1=O", "PAMPA (10^-6 cm/s)": "0.22"}
{"smiles": "CC(C)C[C@@H]1NC(=O)[C@@H](C)N(C)C(=O)[C@H]2CCCN2C(=O)[C@H](Cc2ccccc2)NC(=O)[C@H](CC(C)C)N(C)C(=O)[C@@H]2CCCN2C(=O)[C@@H](CC(C)C)N(C)C1=O", "PAMPA (10^-6 cm/s)": "5.5"}
{"smiles": "CC(C)C[C@@H]1C(=O)N2CCC[C@@H]2C(=O)N(C)[C@@H](CC(C)C)C(=O)N[C@@H](Cc2ccccc2)C(=O)N2CCC[C@H]2C(=O)N(C)[C@H](C)C(=O)N(C)[C@@H](CC(C)C)C(=O)N1C", "PAMPA (10^-6 cm/s)": "6.9"}
{"smiles": "CC(C)C[C@@H]1NC(=O)[C@H](C)N(C)C(=O)[C@H](Cc2ccccc2)NC(=O)[C@H](CC(C)C)N(C)C(=O)[C@@H]2CCCN2C(=O)[C@@H](CC(C)C)NC1=O", "PAMPA (10^-6 cm/s)": "10"}
{"smiles": "CCCN1CC(=O)N[C@@H](CC(C)C)C(=O)N[C@@H](CC(C)C)C(=O)N2CCC[C@H]2C(=O)N(C)[C@@H](CC(C)C)C(=O)N[C@@H](Cc2ccccc2)C(=O)N2CCC[C@@H]2C1=O", "PAMPA (10^-6 cm/s)": "2.1"}
{"smiles": "CCCN1CC(=O)N[C@H](CC(C)C)C(=O)N(C)[C@@H](CC(C)C)C(=O)N2CCC[C@@H]2C(=O)N(C)[C@@H](CC(C)C)C(=O)N[C@@H](Cc2ccccc2)C(=O)N2CCC[C@@H]2C1=O", "PAMPA (10^-6 cm/s)": "6.6"}
{"smiles": "CC(C)C[C@@H]1NC(=O)[C@@H](C)N(C)C(=O)[C@H](Cc2ccccc2)NC(=O)CN(Cc2ccccc2)C(=O)[C@H]2CCCN2C(=O)[C@@H](CC(C)C)N(C)C1=O", "PAMPA (10^-6 cm/s)": "5"}
{"smiles": "CC(C)C[C@@H]1NC(=O)[C@H]2CCCN2C(=O)[C@H](CC(C)C)N(C)C(=O)[C@@H](CC(C)C)NC(=O)[C@H](C)NC(=O)[C@H](Cc2ccccc2)NC1=O", "PAMPA (10^-6 cm/s)": "0.54"}
{"smiles": "CC(C)C[C@@H]1NC(=O)C[C@H](Cc2ccccc2)NC(=O)[C@H]2CCCN2C(=O)[C@H](Cc2ccccc2)NC(=O)CN(Cc2ccccc2)C(=O)[C@@H]2CCCN2C(=O)[C@@H](CC(C)C)NC1=O", "PAMPA (10^-6 cm/s)": "1.4"}

Again, the 2 entries with the lowest PAMPA:

{"smiles": "CCCN1CC(=O)N[C@@H](CC(C)C)C(=O)N(Cc2ccccc2)CC(=O)N2CCC[C@@H]2C(=O)N[C@H](CC(C)C)C(=O)N[C@@H](Cc2ccccc2)C(=O)N2CCC[C@H]2C1=O", "PAMPA (10^-6 cm/s)": "0.22"}
{"smiles": "CC(C)C[C@@H]1NC(=O)[C@H]2CCCN2C(=O)[C@H](CC(C)C)N(C)C(=O)[C@@H](CC(C)C)NC(=O)[C@H](C)NC(=O)[C@H](Cc2ccccc2)NC1=O", "PAMPA (10^-6 cm/s)": "0.54"}

Collected by the curators of CycPeptMPDB (Li et al. 2023) from Townsend et al. 2020, doi:10.26434/chemrxiv.13335941.v1.